What was measured:
SLCO2B1-312Gln = SLCO2B1-312Gln (Homo sapiens, UniProt O94956, R312Q); experiment: DHEAS uptake assay in LNCaP cells transfected with SLCO2B1-312Gln
Source text: (§1) Two full-length SLCO2B1 cDNAs, SLCO2B1-312Gln (having a G at the position 935) and SLCO2B1-312Arg (having an A at position 935), were cloned into the pCMV6-XL4 vector (OriGene Technologies, Rockville, Md.). The SLCO2B1 935G>A nucleotide exchange was introduced into the cDNA using the QuikChange Site-Directed Mutagenesis kit (Stratagene, La Jolla, Calif.). Primers used for the mutagenesis were 5′-[…]-3′ (SEQ ID NO:1) and 5′-[…]-3′ (SEQ ID NO:2) (underlined sequences encode 312Arg).
(§2) LNCaP cells were maintained in RPMI 1640 supplemented with 10% fetal bovine serum (FBS). Twenty-four hours before transfection, 2×10^5 cells were seeded in 12-well plates using Phenol-Red free RPMI 1640 supplemented with 10% charcoal-stripped FBS. LNCaP cells were transiently transfected with pCMV-SLCO2B1-312Gln, pCMV-SLCO2B1-312Arg, or pCMV6-XL4 empty vector using Lipofectamine^2000 according to the manufacturer's instructions.
(§3) The enzyme immunoassay test is based on the competition that occurs between an unlabeled antigen (present in standards, control and samples) and an enzyme-labeled antigen (conjugate) for a limited number of antibody binding sites on the microwell plate. The sensitivity of the kit is 5 ng/ml.

The chains behind the UniProt entries cited, without tags or fusion partners.
UniProt O94956, whole entry R312Q: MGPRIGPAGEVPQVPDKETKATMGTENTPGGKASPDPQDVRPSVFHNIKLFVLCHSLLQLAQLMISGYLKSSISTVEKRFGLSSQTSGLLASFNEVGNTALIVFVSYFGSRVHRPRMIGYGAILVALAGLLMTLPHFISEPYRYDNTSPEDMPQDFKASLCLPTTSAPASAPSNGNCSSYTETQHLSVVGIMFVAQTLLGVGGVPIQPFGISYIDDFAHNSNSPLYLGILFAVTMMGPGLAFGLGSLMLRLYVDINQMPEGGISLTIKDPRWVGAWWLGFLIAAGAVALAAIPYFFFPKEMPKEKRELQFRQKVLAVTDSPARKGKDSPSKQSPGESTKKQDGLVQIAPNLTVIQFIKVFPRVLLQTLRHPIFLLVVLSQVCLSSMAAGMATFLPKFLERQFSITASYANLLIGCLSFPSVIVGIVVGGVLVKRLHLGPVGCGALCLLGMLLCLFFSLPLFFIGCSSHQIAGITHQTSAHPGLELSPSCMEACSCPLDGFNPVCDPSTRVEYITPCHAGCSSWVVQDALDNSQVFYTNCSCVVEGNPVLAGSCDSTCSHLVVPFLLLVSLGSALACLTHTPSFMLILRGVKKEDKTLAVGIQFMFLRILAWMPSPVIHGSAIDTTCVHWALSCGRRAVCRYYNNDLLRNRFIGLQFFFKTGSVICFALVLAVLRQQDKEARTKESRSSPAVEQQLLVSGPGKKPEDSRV

SLCO2B1-312Arg = SLCO2B1-312Arg (Homo sapiens, UniProt O94956); experiment: DHEAS uptake assay in LNCaP cells transfected with SLCO2B1-312Arg
Source text: as §1, §2, §3

AR = AR expression by quantitative RT-PCR; assay type: cell-based; conditions: 100 μM DHEAS
Protocol: Total RNA was isolated from cells using TRIzol reagent (Invitrogen, Carlsbad, Calif.) and then converted to cDNA using High Capacity cDNA Reverse Transcription kit (Applied Biosystems, Foster City, Calif.). The expression levels of SLCO2B1 and GAPDH were measured using a standard TaqMan PCR kit protocol. Experiments were carried out in triplicate for each data point. Real-time PCR primers and probe sets were inventoried products of Applied Biosystem (Assay ID: Hs00200670_m1 and Hs02758991_g1).
To determine the biological influence of DHEAS uptake in AR activation, AR mediated PSA expression was compared in wild type LNCaP and LAPC-4 cells (another CaP cell line, maintained as described above for LNCaP cells) and cells that express different SLCO2B1 variants. The expression levels of AR and PSA were measured using a standard TaqMan PCR kit protocol (Hs02576345_m1 and Hs00171172_m1) as described in Example 3.

LNCaP cells = experiment: Cell proliferation, WST-1 assay, LNCaP; assay type: cell-based; conditions: 100 μM DHEAS
Protocol: To corroborate the hypothesis that increasing the intracellular androgen level is involved in the development of the CRPC cells, the impact of DHEAS uptake on cell growth was determined. Cell proliferation was determined using a WST-1 kit (Roche, Indianapolis, Ind.). Briefly, cells were cultured in 96-well plates in androgen-depleted medium and were transfected with different alleles of SLCO2B1 expression plasmids before adding 100 μM DHEAS. Tetrazolium salt cell proliferation assay then was carried out at different days after transfection, following the manufacturer's instructions.

Q: Which results are given for `C[C@]12CC[C@H](OS(=O)(=O)O)CC1=CC[C@@H]1[C@@H]2CC[C@]2(C)C(=O)CC[C@@H]12` [DHEAS, sulfated dehydroepiandrosterone]?
A: maximal uptake of DHEAS (SLCO2B1-312Gln; 100 μM DHEAS, LNCaP cells expressing SLCO2B1-312Gln): 223.38±8.55 pmol/mg protein; Vmax for DHEAS uptake (SLCO2B1-312Gln; 312Gln variant): 281.4 pmol/mg protein/min; maximal uptake of DHEAS (SLCO2B1-312Arg; 100 μM DHEAS, LNCaP cells expressing SLCO2B1-312Arg): 162.76±25.73 pmol/mg protein; Vmax for DHEAS uptake (SLCO2B1-312Arg; 312Arg variant): 189.5 pmol/mg protein/min; AR expression level, SLCO2B1-Gln cells relative to SLCO2B1-Arg cells (AR): 1.24 fold; increase of growth efficiency (LNCaP cells; LNCaP transfected with SLCO2B1-312Arg): 2.0 fold; increase of growth efficiency (LNCaP cells; LNCaP transfected with SLCO2B1-312Gln): 2.5 fold
